Assays:
[1] = test system: uveal melanoma cell lines (OCM-1, OCM-3, 92-1 and mel 202); assay: Survival / cell death of the four uveal melanoma cell lines; format: cell-based, human; conditions: all 4 uveal melanoma cell lines; read-out: IC50 for survival, range over the 4 uveal melanoma cell lines

SMILES: CS(=O)(=O)O.Cc1ccc(NC(=O)c2ccc(CN3CCN(C)CC3)cc2)cc1Nc1nccc(-c2cccnc2)n1 [Salt I]
- IC50 [1]: 70 to 1250 nM
- percentages of living cells as compared to 100% survival of untreated cells (UM 92-1 cells; UM 92-1, 24 h, 0.6 μM Salt I, runs 1 and 2): 102%
- IC50 (UM 92-1 cells; read-out: IC50 of Salt I on survival, uveal melanoma cell line UM 92-1, Example 1: 48 hours exposure): 1250 nM

From patent US20060111363A1, “Treatment of uveal melanoma” (priority 2002, published 2006)
